Protein sequences, listed by entry. Tags and fused reporters are not part of them.
UniProt P11416, whole entry: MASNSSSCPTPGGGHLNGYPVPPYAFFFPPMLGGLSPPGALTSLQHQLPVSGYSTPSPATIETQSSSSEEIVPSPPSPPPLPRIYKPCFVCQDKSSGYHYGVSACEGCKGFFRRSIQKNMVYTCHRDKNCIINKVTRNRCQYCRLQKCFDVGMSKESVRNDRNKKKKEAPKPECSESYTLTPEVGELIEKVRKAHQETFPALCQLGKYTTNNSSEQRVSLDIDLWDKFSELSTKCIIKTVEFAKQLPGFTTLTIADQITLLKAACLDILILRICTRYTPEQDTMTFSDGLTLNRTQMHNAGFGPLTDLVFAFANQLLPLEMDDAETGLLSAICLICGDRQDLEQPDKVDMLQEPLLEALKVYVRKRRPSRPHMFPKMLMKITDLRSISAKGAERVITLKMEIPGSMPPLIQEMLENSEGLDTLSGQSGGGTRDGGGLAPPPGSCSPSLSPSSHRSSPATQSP

According to ChEMBL document CHEMBL1131217, “Conformationally defined retinoic acid analogues. 4. Potential new agents for acute promyelocytic and juvenile myelomonocytic leukemias” (J Med Chem, 1998):

Biological target: Retinoic acid receptor alpha (Mus musculus, UniProt P11416)
Assay: Transcriptional activation in CV-1 cells expressing retinoid A receptor RAR alpha
Assay type: cell-based
Outline: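 CV-1 cells were transiently transfected with a plasmid for the relevant RAR subtype plus a (TREpal)2-tk-CAT reporter. Retinoids were tested over 1–1000 nM. CAT activity was the read-out. EC50 for half-maximal activation was obtained by Probit analysis of the dose–response curve.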

Compound | EC50
CCC1=C(C(C)C)/C(=C/C(C)=C/C=C/C(C)=C\C(=O)O)CCC1 | 51 nM
CCC1=C(C(C)C)/C(=C/C(C)=C/C=C/C(C)=C/C(=O)O)CCC1 | 33 nM
